Screening results as filed in PubChem.
In the library only some 2.2% were active in any assay of this set; here they are far more common.
S100A4 MyoIIA: inhibitors of S100A4-myosin IIA peptide binding, primary screen, biochemical, fluorescence polarization, TAMRA-MyoIIA peptide. inhibition, % at 10.7 µM. 0.14% of 360,000 active. AID 652163, 2013;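 active means mean inhibition of at least 70% across replicates, with every replicate also reaching that level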
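Compound dosing: one dose per compound; test system: human S100A4 monomer with TAMRA-labelled myosin IIA peptide; probe or stimulus: TAMRA-labelled myosin IIA heavy-chain peptide probe, 5 nM; medium: HEPES buffer with Ca2+, pH 7.2; schedule: 5 min incubation before reading; benchmarks: neutral control DMSO, positive control TFP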
ERp5 inh: inhibitors of ERp5-driven insulin aggregation, primary screen, biochemical, turbidity, absorbance 650 nm, single point. AID 651711, 2012. 0.05% of 350,000 active. Protein disulfide-isomerase A6 (Homo sapiens), Q15084. 90 min. inhibition, % at 9.99 µM;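 active means mean replicate inhibition above about 25%, with every replicate also reaching it, limit read from the data, passing the limit was not always enough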
FGF22 binding: binders of human FGF22 protein, primary screen, FGF22 synaptogenesis inhibitor project, biophysical, thermal shift, single point; 1.5% of 340,000 active; recombinant FGF22 thermal shift, SYPRO orange fluorescence; percent of sucrose octasulfate shift, DMSO zero; Fibroblast growth factor 22 (Homo sapiens), Q9HCT0; AID 651658, 2012; activity (Tm shift, normalised), % at 9.99 µM;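 active means mean Tm shift, scaled 0 neutral to 100 positive control, at about 1.3% or above, every replicate too, limit read from the data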
SIRT5 inh: SIRT5 desuccinylase inhibitors, primary screen, biochemical, fluorescence imaging, single point, set 5. 1.1% of 330,000 active. inhibition, % at 15 µM. AID 652115, 2013. NAD-dependent protein deacylase sirtuin-5, mitochondrial (Homo sapiens), Q9NXA8. Purified SirT5, succinyl-peptide AMC, trypsin-coupled fluorescence; in the data active means inhibition above about 15%
PDI turbidity: inhibitors of human PDI, primary screen, biochemical, turbidity, single point, plate reader; Protein disulfide-isomerase (Homo sapiens), P07237; 0.052% of 350,000 active; AID 588391, 2011; PDI insulin aggregation turbidity, A650, 90 min; inhibition, % at 10 µM;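 active means mean inhibition across replicates of 30% or more, whatever share of single replicates reach that level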
Yeast UUG start: modulators of start codon recognition fidelity in yeast | S. cerevisiae UUG-firefly luciferase reporter, luminescence/redox ratio | activity score, % at 18.7 µM | 350,000 tested, 0.13% active;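 active = replicate mean at a twofold rise or more, about +100% in these data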;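 also: firefly luciferase made from a UUG start codon reports start codon fidelity; reporter light over untreated wells divided by growth signal over untreated wells; some hits fall short of that in this replicate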
Large screens that a line does not name were inactive.

CC1(C)OC2OC(C(=O)N/N=C/c3ccccc3F)C3OC(C)(C)OC3C2O1 (stereo unspecified)	FGF22 binding 44.2
CC1(C)C(C=C(Cl)Cl)C1C(=O)N/N=C/c1ccccc1F (stereo unspecified)	none
CCN(CC)C(=O)C1CCCN(c2ccccc2[N+](=O)[O-])C1 (stereo unspecified)	FGF22 binding 43.0 (no result: Yeast UUG start)
CCN(CC)C(=O)C1CCCN(Cc2ccc3ccccc3c2)C1 (stereo unspecified)	SIRT5 inh 46.5
COc1ccc2c3c(n(C)c2c1)[C@@H](CO)N(C(=O)c1cccnc1)CC31CCN(C)CC1	none (no result: PDI turbidity, Yeast UUG start)
COc1ccc(S(=O)(=O)N2CCC3(CC2)CN(C(=O)c2cccnc2)[C@@H](CO)c2c3c3ccc(OC)cc3n2C)cc1	SIRT5 inh 20.6 (no result: PDI turbidity, Yeast UUG start)
CCS(=O)(=O)N1CC2(CN(Cc3cccc(Cl)c3)[C@H](CO)c3c2c2ccc(OC)cc2n3C)C1	SIRT5 inh 25.6 (no result: PDI turbidity, Yeast UUG start)
CC(C)NC(=O)N(C)C[C@@H]1Oc2c(NC(=O)Nc3ccc4c(c3)OCO4)cccc2C(=O)N([C@@H](C)CO)C[C@@H]1C	none (no result: S100A4 MyoIIA, ERp5 inh, SIRT5 inh, PDI turbidity)
C[C@H](CO)N1C[C@H](C)[C@@H](CN(C)Cc2ccc(Cl)c(Cl)c2)Oc2ccc(NS(=O)(=O)c3ccc(Cl)cc3)cc2C1=O	none (no result: PDI turbidity)
C[C@@H]1CCCCO[C@H](CN(C)C(=O)CCC(F)(F)F)[C@@H](C)CN([C@@H](C)CO)C(=O)c2cc(NC(=O)C3CCCCC3)ccc2O1	SIRT5 inh 17.9 (no result: PDI turbidity)
C[C@H]1CCCCO[C@@H](CN(C)C(=O)CCC(F)(F)F)[C@@H](C)CN([C@@H](C)CO)C(=O)c2cc(NC(=O)C3CCCCC3)ccc2O1	none (no result: PDI turbidity)
C[C@@H]1CCCCO[C@@H](CN(C)C(=O)CCC(F)(F)F)[C@@H](C)CN([C@@H](C)CO)C(=O)c2cc(NC(=O)c3ccccc3)ccc2O1	S100A4 MyoIIA 97.2 (no result: PDI turbidity)
O=C(c1ccccn1)N1CC2(C1)[C@@H](c1ccccc1)[C@@H](CO)N2C(=O)CC1CC1	none (no result: PDI turbidity, Yeast UUG start)
CC(NC(=O)c1ccccc1F)c1nnc(SCC(=O)Nc2nnc(C3CC3)s2)n1C (stereo unspecified)	S100A4 MyoIIA 93.3
CC=Cc1ccc2n(c1=O)C[C@@H]1[C@@H](CO)[C@H](C(=O)NC3CCC3)N(CCC)[C@H]21 (mixture of isomers)	none (no result: FGF22 binding, PDI turbidity, Yeast UUG start)
C[C@H](CO)N1C[C@H](C)[C@H](CN(C)C(=O)C2CCCCC2)Oc2ncc(C#CC3CCCC3)cc2C1=O	none (no result: PDI turbidity)
CCc1ccc(-n2c(=S)sc3c(=O)[nH]c(SCC(=O)NC4CCCCC4)nc32)cc1	FGF22 binding 43.5 (no result: SIRT5 inh)
CCCCNC(=O)CSc1nc2c(sc(=S)n2-c2cc(Cl)ccc2OC)c(=O)[nH]1	FGF22 binding 1.4
COc1ccc(Cl)cc1-n1c(=S)sc2c(=O)[nH]c(SCC(=O)C(C)(C)C)nc21	none
C[C@@H]1CN([C@@H](C)CO)C(=O)c2cccc(NC(=O)C3CCCCC3)c2O[C@H]1CN(C)Cc1ccncc1	none (no result: PDI turbidity)
Cc1ccc(S(=O)(=O)N[C@H]2CC[C@@H](CCNC(=O)C3CC3)O[C@H]2CO)cc1	none (no result: PDI turbidity)
Cc1ccccc1NC(=S)N/N=C/c1ccc(O)cc1O	SIRT5 inh 15.8
Cc1cccc(NC(=S)N/N=C/c2cccc(O)c2)c1C	none
Cc1ccc(C(=O)c2cc3c(cc2N)OCCO3)cc1	none (no result: PDI turbidity)
Cc1ccc(C(=O)c2cc(C)sc2N)cc1	FGF22 binding 42.9 (no result: Yeast UUG start)
COc1ccc(C)cc1NS(=O)(=O)c1ccc2c(c1)CCN2C(C)=O	none
CC(=O)N1CCCc2cc(S(=O)(=O)Nc3ccccc3C)ccc21	FGF22 binding 43.5
COc1cccc(CN2CC(C(=O)N(C)CC3CCOCC3)CCC2=O)c1 (stereo unspecified)	SIRT5 inh 19.0
COc1cccc(CN2CC(C(=O)N(C)CCc3ccccc3)CCC2=O)c1 (stereo unspecified)	none
CO[C@H]1CN(C)C(=O)c2cc(NC(C)=O)ccc2OC[C@H](C)N(C(=O)c2cnccn2)C[C@@H]1C	none (no result: ERp5 inh, SIRT5 inh, PDI turbidity, Yeast UUG start)
COc1ccc(CN=C2NN=C(c3cccc(OC)c3)CS2)cc1	FGF22 binding 43.2 (no result: Yeast UUG start)
COc1cccc(C2=NNC(=NCc3ccccc3)SC2)c1	none (no result: Yeast UUG start)
O=C(c1cccs1)c1coc2ccc(O)c(CN3CCOCC3)c12	SIRT5 inh 29.1 (no result: FGF22 binding)
O=C(c1coc2ccc(O)c(CN3CCOCC3)c12)C1CC1	none (no result: S100A4 MyoIIA, ERp5 inh, FGF22 binding, SIRT5 inh)
O=C(NC[C@@H]1CC[C@H]2[C@H](CN2S(=O)(=O)c2ccccc2)O1)NC1CCCCC1	none (no result: FGF22 binding, PDI turbidity, Yeast UUG start)
[N-]=C=C1C(=S)NC(=O)[C@H]([n+]2ccccc2)[C@H]1c1ccc(Cl)cc1	SIRT5 inh 33.8
C[C@@H]1CN([C@@H](C)CO)C(=O)c2cc(NC(=O)C3CCCCC3)ccc2O[C@@H](C)CCCCO[C@@H]1CN(C)C(=O)Nc1cccc2ccccc12	none (no result: PDI turbidity)
O=C1CCCCC1C(O)(C(=O)c1ccccc1)c1ccccc1 (stereo unspecified)	FGF22 binding 43.3 (no result: SIRT5 inh)
CC(C)(C)[C@@H]1C=C(C(=O)N2CCCCCCC2)O[C@H](OCc2ccc(CO)cc2)C1	none (no result: PDI turbidity)
O=C(NCCNC(=O)Oc1cccc2ccccc12)Oc1cccc2ccccc12	SIRT5 inh 25.5
COC(=O)c1cn(CC(=O)N2CCCCCC2)c2ccccc12	none (no result: S100A4 MyoIIA, ERp5 inh, FGF22 binding, SIRT5 inh)
CCOC(=O)C1CCN(C(=O)Cn2cc(C(=O)OC)c3ccccc32)CC1	SIRT5 inh 18.2
O=C(CSc1ccccc1C(=O)O)NCc1ccccc1	SIRT5 inh 15.3
O=C(CSc1ccccc1)NCc1ccccc1	none
COC(=O)c1c(N2C(=O)Nc3ccccc3N2O)sc(C)c1C	FGF22 binding 43.2
CC=Cc1ccc2n(c1=O)C[C@@H]1[C@@H](CO)[C@H](C(=O)NCCC)N(CCC(F)(F)F)[C@H]21 (mixture of isomers)	none (no result: PDI turbidity, Yeast UUG start)
O=C(Oc1ccc(Cl)c(Cl)c1)C1=CC=CN2CCS(=O)(=O)N=C12	none
O=C(Oc1cc(Cl)ccc1Cl)C1=CC=CN2CCS(=O)(=O)N=C12	FGF22 binding 15.6
NC(=O)c1ccsc1NC(=O)c1ccc(N2CCCC2=O)cc1	FGF22 binding 43.5 (no result: SIRT5 inh, Yeast UUG start)
NC(=O)c1ccsc1NC(=O)c1ccc2c(c1)CCCC2	none
Cc1ccc(N2C(=O)CC(Sc3cccs3)C2=O)cc1 (stereo unspecified)	none (no result: Yeast UUG start)
Cc1ccc(SC2CC(=O)N(c3ccc4c(c3)OCCO4)C2=O)cc1 (stereo unspecified)	FGF22 binding 43.2 (no result: Yeast UUG start)
